# Molecular target: human Tachykinin receptor 1 (human) (UniProt P25103)
# Chains of the proteins cited; added tags and fusions are not shown.
# UniProt P25103, whole entry: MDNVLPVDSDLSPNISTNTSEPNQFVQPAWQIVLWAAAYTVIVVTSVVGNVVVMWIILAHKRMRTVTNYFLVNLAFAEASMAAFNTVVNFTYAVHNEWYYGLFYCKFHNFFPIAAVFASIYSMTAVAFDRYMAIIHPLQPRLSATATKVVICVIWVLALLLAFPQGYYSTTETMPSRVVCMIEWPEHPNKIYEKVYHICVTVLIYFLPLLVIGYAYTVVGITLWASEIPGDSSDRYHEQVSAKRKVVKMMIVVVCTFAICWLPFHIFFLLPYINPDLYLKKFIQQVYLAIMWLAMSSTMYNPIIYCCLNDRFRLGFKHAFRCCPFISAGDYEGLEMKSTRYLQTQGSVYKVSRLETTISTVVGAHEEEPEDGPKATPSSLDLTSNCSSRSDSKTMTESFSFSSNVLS
# Test: cell-based or functional assay
substance,measurement,value
Substance P (from UniProt P20366 58-68) (peptide),"EC50, Fura-2/AM ratiometric fluorescent calcium assay",14 nM
same,"Ec50, biosensor fluorescence redistribution (increment of granularity), 6 h treatment",9.5 pM
